In US20140066431A1, “Benzoxazepines as Inhibitors of PI3K/mTOR and Methods of Their Use and Manufacture” (Exelixis, Inc., priority 2010, published 2014) one finds IC50 data, which are given here for 1 compound.

Sequences of proteins named here, by UniProt entry; tags and fusion partners are left off. A change or cut given only in a name is not applied to a line headed by its entry.
UniProt P42338: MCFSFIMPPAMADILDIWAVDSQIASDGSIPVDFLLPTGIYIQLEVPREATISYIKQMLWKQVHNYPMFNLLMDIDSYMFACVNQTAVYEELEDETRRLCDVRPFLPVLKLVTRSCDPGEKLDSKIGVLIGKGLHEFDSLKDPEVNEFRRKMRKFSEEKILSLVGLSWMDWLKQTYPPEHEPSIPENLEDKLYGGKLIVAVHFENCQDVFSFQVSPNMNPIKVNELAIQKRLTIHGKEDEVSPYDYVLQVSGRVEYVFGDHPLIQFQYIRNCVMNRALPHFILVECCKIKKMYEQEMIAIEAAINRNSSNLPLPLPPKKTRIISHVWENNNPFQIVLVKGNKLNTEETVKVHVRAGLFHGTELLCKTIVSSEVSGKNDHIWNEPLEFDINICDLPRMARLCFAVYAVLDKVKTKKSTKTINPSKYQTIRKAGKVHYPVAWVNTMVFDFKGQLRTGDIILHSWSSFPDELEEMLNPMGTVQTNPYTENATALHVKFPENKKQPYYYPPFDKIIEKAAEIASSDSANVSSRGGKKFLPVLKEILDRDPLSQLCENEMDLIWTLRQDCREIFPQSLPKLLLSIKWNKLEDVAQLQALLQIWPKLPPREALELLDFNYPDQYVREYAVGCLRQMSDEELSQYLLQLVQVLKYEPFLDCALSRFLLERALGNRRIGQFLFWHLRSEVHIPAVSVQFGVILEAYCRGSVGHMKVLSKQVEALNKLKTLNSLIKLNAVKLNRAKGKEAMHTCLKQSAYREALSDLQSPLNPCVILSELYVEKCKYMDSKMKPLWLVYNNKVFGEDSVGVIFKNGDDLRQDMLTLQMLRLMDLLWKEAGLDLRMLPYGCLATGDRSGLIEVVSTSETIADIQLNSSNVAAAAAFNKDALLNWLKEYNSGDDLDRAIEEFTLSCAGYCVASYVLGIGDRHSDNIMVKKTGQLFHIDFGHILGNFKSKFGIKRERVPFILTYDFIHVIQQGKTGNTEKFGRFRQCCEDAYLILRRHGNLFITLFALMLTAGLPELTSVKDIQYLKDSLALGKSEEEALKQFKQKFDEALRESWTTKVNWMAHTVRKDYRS

Assay [1] deals with PC3 (PTEN null) cellular model. The assay can be described thus: pAKT (T308) ELISA assay, PC3. The format is cell-based. The conditions noted are these: Homo sapiens; LPA stimulation. As to the method: In another embodiment, the pAKT ELISA Assay was performed by seeding cells onto 96-well plates (Corning, 3904) in their respective growth media at the densities listed in Table 3. Cells were incubated at 37° C., 5% CO2 for 48 h (except MDA-MB-453 cells which were cultured in the absence of CO2). Compounds were serially diluted in DMSO and subsequently diluted in serum-free DMEM. Test compounds were added to cells in serum-free DMEM at a final concentration of 0.3% DMSO and incubated for 3 h. Cells were lysed with 130 μL of ice-cold RIPA lysis buffer (50 mM Tris-HCl, pH 7.5; 0.5% sodium deoxycholic acid; 1% Triton X-100; 0.1% SDS; 150 mM NaCl) with protease and phosphatase inhibitors (1 mM EDTA, 1 mM NaF, 20 mM β-glycerophosphate, 1 mM Na-orthovanadate, Complete-Mini EDTA-free, Roche, 11836170001, and Phosphatase Inhibitor Cocktail I, Sigma, P2850), directly in 96-well plates. Cells were lysed on ice for 60-120 min at 4° C. The supernatants were added directly to capture ELISA plates previously pre-coated with rabbit anti-AKT capture antibody. […] The wells were measured for luminescence using a Wallac plate reader at wavelength of 560 nm. After normalization of pAKT signal to total AKT1 signal, IC50 values were determined relative to the DMSO-treated control.

In the next assay the target is PI3Kβ (Homo sapiens, UniProt P42338). Description: PI3K biochemical assay, PI3Kβ. The note with it: PIP2 as substrate. The protocol: PI3Kα activity is measured as the percent of ATP consumed following the kinase reaction using luciferase-luciferin-coupled chemiluminescence. Reactions were conducted in 384-well white, medium binding microtiter plates (Greiner). Kinase reactions were initiated by combining test compounds, ATP, substrate (PIP2), and kinase in a 20 μL volume in a buffer solution. The standard PI3Kalpha assay buffer is composed 50 mM Tris, pH 7.5, 1 mM EGTA, 10 mM MgCl2, 1 mM DTT and 0.03% CHAPS. The standard assay concentrations for enzyme, ATP, and substrate are 1.5 nM, 1 μM, and 10 μM, respectively. The reaction mixture was incubated at ambient temperature for approximately 2 h. Following the kinase reaction, a 10 μL aliquot of luciferase-luciferin mix (Promega Kinase-Glo) was added and the chemiluminescence signal measured using a Victor2 plate reader (Perkin Elmer). Total ATP consumption was limited to 40-60% and IC50 values of control compounds correlate well with literature references. Substituting PI3Kα with PI3Kβ, PI3Kγ, or PI3Kδ, the inhibitory activity of the compounds for the other isoforms of I3K were measured.

Regarding `Cc1cc(C(C)Nc2ccccc2)c2nc(N3CCOCC3)cc(=O)n2c1` (centres unmarked) [TGX-221, 7-methyl-2-(4-morpholinyl)-9-[1-(phenylamino)ethyl]-4H-pyrido[1,2-a]pyrimidin-4-one], the half-maximal inhibitory concentration (IC50) (in assay [1]; on PI3Kβ) was 16 nM each time.
